This is an account of results in patent US7517889B2, “2,6-substituted-4-monosubstitutedamino-pyrimidine as prostaglandin D2 receptor antagonists” (Aventis Pharmaceuticals, Inc., priority 2004, dated 2009).

Structures can show the parent of a compound that is named as a salt.

The target of this assay is T1, DP receptor (Homo sapiens, UniProt Q13258).
T1 construct: the human cell line LS174T, which expresses the endogenous DP receptor; endogenous in cells; host or cells: LS174T human cell line
T1 sequence (Q13258 1-359): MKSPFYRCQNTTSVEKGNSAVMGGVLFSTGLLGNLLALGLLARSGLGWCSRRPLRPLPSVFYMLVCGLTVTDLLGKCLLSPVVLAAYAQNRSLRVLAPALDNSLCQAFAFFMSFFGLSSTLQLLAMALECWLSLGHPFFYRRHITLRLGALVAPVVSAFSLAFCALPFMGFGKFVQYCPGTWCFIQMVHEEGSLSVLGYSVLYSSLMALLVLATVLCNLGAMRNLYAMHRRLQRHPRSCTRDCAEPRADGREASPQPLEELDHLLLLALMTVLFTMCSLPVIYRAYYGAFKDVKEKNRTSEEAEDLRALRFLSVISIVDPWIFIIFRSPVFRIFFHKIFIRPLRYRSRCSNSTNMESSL
Put plainly: SPA cAMP assay in human LS174 T cells (human DP functional assay). The format is cell-based. The method, then: The inhibitory effects of the compounds according to the invention are assessed in a human DP functional assay. A cAMP assay is employed using the human cell line LS174T, which expresses the endogenous DP receptor.
Protocol for SPA cAMP Assay in Human LS174 T Cells
• 1) Add equal volumes of tracer, antiserum and SPA anti-rabbit reagent to a bottle, ensuring that a sufficient volume of this mixture is prepared for the desired number of wells (150 μL/well). • 2) Mix thoroughly. • 3) This immunoreagent solution should be freshly prepared before each assay and not re-used.
Add 50 μL of […] IBMX into 100 mL PBS to make a final concentration of 100 μM and sonicate at 30° C. for 20 minutes.
Before each assay, it is freshly prepared. Add 3 μL of 10 mM stock solution to 20 mL DMSO, mix it thoroughly, and transfer 10 mL to 40 mL PBS.
Compound dilution is carried out in Biomex 2000 (Beckman) using Method 1_cAMP DP 11 points.
5 μL of each compound from the 10 mM stock compound plates is transferred to the wells of a 96-well plate respectively as below.
Fill the plate with 45 μL of DMSO except column 7 is filled with 28 μL DMSO. Pipette column 1 thoroughly, and transfer 12 μL into column 7 parallel. […]
The cAMP concentrations (pmol/mL) of unknown samples are calculated from a standard curve of cAMP versus CPM. % inhibition is calculated using the following formula: […]
A general note: Cyclic AMP is a second messenger, typically raised through Gs and lowered through Gi signalling.

As usually defined, the IC50 is the midpoint of a concentration-inhibition curve. Consider `COc1ccc(CCNc2cc(-c3cccc(-c4nnn[nH]4)c3)nc(OC)n2)cc1` [Example 54, [2-(4-Methoxy-phenyl)-ethyl]-{2-methoxy-6-[3-(1H-tetrazol-5-yl)-phenyl]-pyrimidin-4-yl}-amine, sodium salt], for which the midpoint of inhibition, the IC50, lay at 0.4 nM.
Turning to `COc1nc(NCCc2ccc(Cl)cc2Cl)cc(-c2cccc(C(F)(F)c3nnn[nH]3)c2)n1` [Example 82(c), [2-(2,4-Dichloro-phenyl)-ethyl]-(6-{3-[difluoro-(1H-tetrazol-5-yl)-methyl]-phenyl}-2-methoxy-pyrimidin-4-yl)-amine], the IC50 amounted to 0.1 nM.
